# In ChEMBL document CHEMBL2169869, “Assay and inhibition of diacylglycerol lipase activity” (Bioorg Med Chem Lett, 2012):
# By UniProt entry, the sequences of proteins in these tests, tags left out.
# UniProt Q9Y4D2, whole entry, looked up: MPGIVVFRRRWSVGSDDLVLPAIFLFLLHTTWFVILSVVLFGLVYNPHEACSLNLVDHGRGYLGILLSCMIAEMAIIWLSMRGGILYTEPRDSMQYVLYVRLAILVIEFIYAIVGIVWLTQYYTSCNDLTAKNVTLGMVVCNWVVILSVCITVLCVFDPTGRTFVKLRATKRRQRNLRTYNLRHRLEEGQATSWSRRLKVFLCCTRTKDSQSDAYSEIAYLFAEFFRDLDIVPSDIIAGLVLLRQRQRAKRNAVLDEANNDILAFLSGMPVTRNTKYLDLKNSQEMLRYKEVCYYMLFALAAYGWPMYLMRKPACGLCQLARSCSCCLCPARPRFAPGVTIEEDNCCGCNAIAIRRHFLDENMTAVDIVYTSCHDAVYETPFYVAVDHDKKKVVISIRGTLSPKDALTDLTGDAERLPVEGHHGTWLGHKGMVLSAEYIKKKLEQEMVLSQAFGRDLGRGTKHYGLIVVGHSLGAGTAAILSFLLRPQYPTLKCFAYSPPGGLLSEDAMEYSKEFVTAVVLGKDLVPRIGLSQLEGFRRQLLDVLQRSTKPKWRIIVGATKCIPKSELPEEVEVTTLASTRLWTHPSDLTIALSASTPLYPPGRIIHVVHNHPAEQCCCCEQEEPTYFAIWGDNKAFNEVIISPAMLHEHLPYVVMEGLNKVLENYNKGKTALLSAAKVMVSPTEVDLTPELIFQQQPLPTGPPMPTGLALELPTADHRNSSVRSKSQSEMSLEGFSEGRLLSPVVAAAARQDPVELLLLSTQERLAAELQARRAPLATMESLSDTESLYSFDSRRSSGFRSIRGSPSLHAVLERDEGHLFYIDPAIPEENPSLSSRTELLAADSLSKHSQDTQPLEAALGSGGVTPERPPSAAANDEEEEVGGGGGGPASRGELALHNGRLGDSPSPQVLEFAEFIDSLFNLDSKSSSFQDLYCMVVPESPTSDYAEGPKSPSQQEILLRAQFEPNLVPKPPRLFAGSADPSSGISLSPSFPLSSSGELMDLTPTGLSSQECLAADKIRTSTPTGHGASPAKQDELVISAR
# Molecular target: Diacylglycerol lipase-alpha (Homo sapiens, UniProt Q9Y4D2)
# Assay: Inhibition of human DAGLalpha
# Settings: read-out: IC50(app)
smiles,measurement,value
CCCCCCCC/C=C\CCCCCCCC(=O)OC(COC)COP(C)(=O)F (stereo unspecified),IC50,0.16 µM
